# Bioassay records deposited in PubChem BioAssay by several laboratories.
# MC4R barr agon = human MC4R agonism via beta-arrestin; AID 540308; activation, % at 8.9 µM; U2OS MC4R beta-arrestin complementation, luminescence; percent of melanotan II response, DMSO zero; P32245; 360,000 compounds, 0.98% hits;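 active means activation above a per-plate cutoff, the mean activation of sample wells on that plate plus 3 SD, cut at about 8% in these data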
# UUG fidelity = yeast start codon fidelity modulation | S. cerevisiae UUG-firefly luciferase reporter, luminescence/redox ratio | activity score, % at 18.7 µM | hit rate 0.13% among 350,000 | AID 602363;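 active means replicate mean at a twofold rise or more, about +100% in these data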;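 further: firefly luciferase made from a UUG start codon reports start codon fidelity; reporter light over untreated wells divided by growth signal over untreated wells; some hits fall short of that in this replicate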
# ARFGAP1 inhibitor = inhibits rat ARF GTPase activating protein 1; Arfgap1-stimulated ARF1 GTP hydrolysis, GDP FP detection; inhibition, % at 16.5 µM; 360,000 compounds, 0.26% hits;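 active means inhibition above a per-plate limit, mean inhibition of low control wells plus 3 SD, cut at about 25% in these data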;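 further: 0% = DMSO wells with enzyme and 100% = wells lacking Arfgap1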
#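 Material – truncated rat Arfgap1 GAP domain · Buffer or medium – HEPES-based buffer, pH 7.5 · Reagent – human ARF1(Δ1-17)-GTP substrate · Dosing – 16.5 µM single point, 1.26% DMSO · Schedule – GTP hydrolysis reaction 2 h at 25 °C · Technique – GDP detection by fluorescence polarization · Benchmarks – No-Arfgap1 wells (100%) versus DMSO full-reaction wells (0%) · Repeats – single replicate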
# ASAP1 GAP inh = ASAP1 ArfGAP inhibition; AID 624377; Q9ULH1; inhibition, % at 16.5 µM; ASAP1-stimulated ARF1 GTP hydrolysis, GDP FP detection; 360,000 compounds, 0.19% hits; in the data active means inhibition above about 25%;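 further: 0% = vehicle with enzyme and substrate and 100% = no enzyme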
# MC4R antagonist = human MC4R antagonism in cAMP assay. P32245. MC4R-expressing cells, MTII-stimulated cAMP, LANCE TR-FRET. inhibition, % at 6.5 µM. 360,000 compounds, 0.48% hits. AID 540295;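 active means inhibition above its plate's cutoff, the mean of tested wells on that plate plus 3 SD, cut at about 29% in these data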;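 further: 0% = Melanotan II alone and 100% = Melanotan II plus saturating MCL0020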
#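 Material – human MC4R-expressing U2OS cells · Repeats – no replicates · Detection – TR-FRET with Eu-cAMP and labeled anti-cAMP, 671 nm · Times – compound 30 min, challenge 1 h, detection 1 h · Compound – single nominal compound dose of 6.5 µM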
# CendR NRP1 mod = alters CendR peptide binding to human NRP-1. FAM-RPARPAR peptide binding to NRP-1, fluorescence polarization. inhibition, % at 25 µM. O14786. 360,000 compounds, 0.85% hits;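 active means inhibition or corrected inhibition above about 18%, plus a signal ratio from 0.5 to 1.5, limit read from the data, passing the limit was not always enough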
# U2OS cAMP counter = U2OS forskolin cAMP inhibition counter-screen; shares compounds with MC4R antagonist; parental U2OS, LANCE TR-FRET; inhibition, % at 6.5 µM; 1,600 compounds, 26% hits; AID 602193;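 active means mean inhibition over triplicates above the low-control well mean plus 3 SD, set per campaign, cut at about 13% in these data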;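 further: signal is single emission at 671 nm which falls as cellular cAMP rises; 0% = forskolin-stimulated wells and 100% = buffer without forskolin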
# MC4R cAMP antag = human MC4R cAMP antagonism confirmation; shares compounds with MC4R antagonist; MC4R-expressing cells, MTII-stimulated cAMP, TR-FRET; inhibition, % at 6.5 µM; 1,600 compounds, 27% hits; AID 602195; in the data active means inhibition above about 29%;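 further: 0% = agonist stimulated wells alone and 100% = agonist stimulated wells plus saturating reference antagonist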
# Active calls of the source: *; · = no result given. A selection: hits, their analogues and other compounds. The true share with any hit is near 2.3%.
# Abbreviations: A = MC4R barr agon; B = UUG fidelity; C = ARFGAP1 inhibitor; D = ASAP1 GAP inh; E = MC4R antagonist; F = CendR NRP1 mod; G = U2OS cAMP counter; H = MC4R cAMP antag
1	CCOC(=O)N1CCN(CCC(=O)c2ccc(OC)cc2)CC1
  A = -4.3	B = ·	C = -0.5	D = 10.2	E = 33.5*	F = 8.4	G = 10.2	H = 21.6

2	CCS(=O)(=O)N1Cc2ccccc2CC1C(=O)N(C)Cc1ccc(OC)c(F)c1 (centres undefined)
  A = -0.4	B = -11.8	C = -1.3	D = -6.6	E = 33.6*	F = -3.7	G = -4.7	H = -14.0

3	Cc1cc(C(=O)COC(=O)CNS(=O)(=O)c2ccc3ccccc3c2)c(C)n1-c1ccccc1
  A = -1.7	B = ·	C = 9.9	D = -7.3	E = 13.2	F = 9.9	G = ·	H = ·

4	O=C(CNS(=O)(=O)c1ccc2ccccc2c1)OCC(=O)c1ccc(Br)s1
  A = 5.3	B = -10.2	C = 4.4	D = -4.8	E = 46.9*	F = -6.6	G = 23.4*	H = 42.6*

5	COc1cc(OC)cc(Oc2ccc(S(=O)(=O)N3CCCCC3)cc2[N+](=O)[O-])c1
  A = -1.2	B = -4.5	C = -9.7	D = -8.6	E = 29.6*	F = 10.7	G = 9.4	H = 21.6

6	COc1ccc(C2CC(c3c(O)cc(C)oc3=O)=NCCS2)c(OC)c1 (centres undefined)
  A = -1.6	B = -8.5	C = ·	D = ·	E = -18.2	F = -11.8	G = ·	H = ·

7	Cc1cc(O)c(C2=Nc3ccccc3SC(c3ccc(Cl)cc3)C2)c(=O)o1 (centres undefined)
  A = -2.9	B = ·	C = 4.0	D = 3.4	E = 30.6*	F = 4.4	G = 3.1	H = 3.9

8	COCC(=O)Nc1ccc2c(c1)C(=O)N(C)C[C@@H](OC)[C@H](C)CN(Cc1ccccc1)[C@H](C)CO2
  A = ·	B = 29.8	C = ·	D = ·	E = ·	F = ·	G = ·	H = ·

9	COc1ccc(-c2cn(CC[C@@H]3CC[C@@H](NC(=O)NC(C)C)[C@@H](CO)O3)nn2)cc1
  A = ·	B = 0.6	C = ·	D = ·	E = ·	F = ·	G = ·	H = ·

10	O=C(c1cc(=O)c2ccccc2o1)N(Cc1ccccc1)C1CCS(=O)(=O)C1 (centres undefined)
  A = -0.8	B = -8.6	C = 11.1	D = -1.1	E = -0.8	F = 12.5	G = ·	H = ·

11	Cc1cc2oc(C(=O)N(Cc3ccccc3)C3CCS(=O)(=O)C3)cc(=O)c2cc1Cl (centres undefined)
  A = 1.0	B = 2.1	C = 3.0	D = 3.5	E = 30.0*	F = -0.7	G = 0.8	H = 10.9

12	Cc1ccc(S(=O)(=O)N(C)C[C@H]2OCCCC[C@H](C)Oc3ccc(NC(=O)Cc4ccccc4)cc3C(=O)N([C@@H](C)CO)C[C@H]2C)cc1
  A = ·	B = -6.0	C = ·	D = ·	E = ·	F = ·	G = ·	H = ·

13	CCCCN(Cc1ccco1)C(=O)C1CCCN(c2ncnc3c2nc2n3CCCCC2)C1 (centres undefined)
  A = 1.3	B = -2.9	C = -4.0	D = -4.7	E = 32.1*	F = 8.8	G = -2.5	H = 9.2

14	O=C(C[C@@H]1C=C[C@@H](NC(=O)Nc2cc(F)ccc2F)[C@@H](CO)O1)NCc1ccccn1
  A = ·	B = -7.1	C = ·	D = ·	E = ·	F = ·	G = ·	H = ·

15	Cc1nc(=O)c(-c2ccccc2)c(C)n1-c1ccccc1
  A = 1.8	B = -11.0	C = -0.7	D = 12.6	E = 30.9*	F = -0.4	G = -6.4	H = -2.9

16	S=C(NC1CC1)NC1CCCc2ccccc21 (centres undefined)
  A = 3.2	B = ·	C = -2.9	D = -5.7	E = 28.5*	F = -20.0	G = 5.5	H = 3.7

17	C[C@@H]1CN([C@H](C)CO)C(=O)c2cc(-c3ccccc3)cnc2O[C@@H]1CN(C)C(=O)c1ccccn1
  A = ·	B = -1.6	C = ·	D = ·	E = ·	F = ·	G = ·	H = ·

18	N#Cc1c(N2CCN(C(=O)c3ccco3)CC2)nc(-c2ccccc2)c2c1CCCC2
  A = 2.1	B = -8.0	C = 3.6	D = -2.8	E = 34.3*	F = -12.4	G = 8.1	H = 43.3*

19	COc1ccc(-c2cc(C(=O)N(C)CC(=O)Nc3ccccc3C(F)(F)F)c3ccccc3n2)cc1OC
  A = -0.7	B = 7.5	C = 0.7	D = -5.5	E = 31.0*	F = -8.3	G = 2.4	H = 11.6

20	COc1ccc(-c2cc(C(=O)OCC(=O)N3CCCCC3)c3ccccc3n2)cc1OC
  A = -0.3	B = ·	C = -0.2	D = 6.2	E = 36.9*	F = -10.4	G = 3.0	H = 14.6

21	COc1ccc(-c2cc(C(=O)N3CCCCCC3)c3ccccc3n2)cc1OC
  A = -2.0	B = 0.2	C = -11.8	D = -1.3	E = -2.6	F = 5.2	G = ·	H = ·

22	C[C@H](O)C#Cc1ccc([C@H]2[C@@H](CO)N3CCCCN(C(=O)c4cccc(F)c4)C[C@@H]23)cc1
  A = ·	B = -2.6	C = ·	D = ·	E = ·	F = ·	G = ·	H = ·

23	CN(CC(=O)NCCCc1ccccc1)Cc1ccc(Br)cc1
  A = 5.3	B = -19.4	C = -12.2	D = 3.8	E = 30.1*	F = 3.1	G = -3.0	H = -1.0

24	CN(CC(=O)NCCc1ccc(F)cc1)Cc1ccc(Br)cc1
  A = 3.1	B = -8.4	C = 11.3	D = 12.4	E = 18.2	F = 7.5	G = ·	H = ·

25	COC(=O)c1cc([N+](=O)[O-])c(-n2ccnc2)c([N+](=O)[O-])c1
  A = -0.3	B = ·	C = -1.8	D = 4.0	E = 30.6*	F = -7.9	G = -3.3	H = -0.3

# By substructure: the entries above containing a nitro group on carbon.
# Abbreviations: A = MC4R barr agon; B = UUG fidelity; C = ARFGAP1 inhibitor; D = ASAP1 GAP inh; E = MC4R antagonist; F = CendR NRP1 mod; G = U2OS cAMP counter; H = MC4R cAMP antag
5	COc1cc(OC)cc(Oc2ccc(S(=O)(=O)N3CCCCC3)cc2[N+](=O)[O-])c1
  A = -1.2	B = -4.5	C = -9.7	D = -8.6	E = 29.6*	F = 10.7	G = 9.4	H = 21.6

25	COC(=O)c1cc([N+](=O)[O-])c(-n2ccnc2)c([N+](=O)[O-])c1
  A = -0.3	B = ·	C = -1.8	D = 4.0	E = 30.6*	F = -7.9	G = -3.3	H = -0.3

# The listing continues:
# Abbreviations: A = MC4R barr agon; B = UUG fidelity; C = ARFGAP1 inhibitor; D = ASAP1 GAP inh; E = MC4R antagonist; F = CendR NRP1 mod; G = U2OS cAMP counter; H = MC4R cAMP antag
26	Cc1cccc(CS(=O)(=O)c2ncc(Cl)c(C(=O)NCc3ccccc3)n2)c1
  A = -5.0	B = -11.2	C = 8.7	D = 9.2	E = 52.3*	F = -3.8	G = 27.4*	H = 57.2*

27	CCCc1nnc(NC(=O)c2nc(S(=O)(=O)Cc3cccc(C)c3)ncc2Cl)s1
  A = -4.9	B = -5.3	C = -9.6	D = 6.6	E = 37.7*	F = 2.3	G = 24.9*	H = 47.4*

28	Cc1cccc(CS(=O)(=O)c2ncc(Cl)c(C(=O)Nc3c(C)cccc3C)n2)c1
  A = -5.9	B = -21.6	C = 2.5	D = -3.4	E = 27.5	F = 1.4	G = ·	H = ·

29	O=C(Nc1sc2c(c1C(=O)NCC1CCCO1)CCCC2)c1cccs1 (centres undefined)
  A = 0.6	B = -10.8	C = -3.7	D = 8.2	E = 31.4*	F = -3.6	G = 3.4	H = 15.2

30	CO[C@H]1CN(C)C(=O)c2ccc(NC(=O)C3CC3)cc2OC[C@H](C)N(Cc2cccnc2)C[C@@H]1C
  A = ·	B = -20.4	C = ·	D = ·	E = ·	F = ·	G = ·	H = ·

31	O=C(NC(=S)Nc1cc(S(=O)(=O)N2CCOCC2)ccc1N1CCOCC1)c1ccco1
  A = -3.7	B = ·	C = -0.7	D = 16.3	E = 36.6*	F = 3.2	G = 1.3	H = -7.4

32	O=C(COC(=O)[C@H](Cc1ccccc1)NC(=O)c1cccs1)Nc1c(Cl)cccc1Cl
  A = -0.6	B = -10.4	C = 2.0	D = 3.9	E = 31.3*	F = 0.3	G = 14.4*	H = 34.6*

33	O=C(COC(=O)C(Cc1ccccc1)NC(=O)c1cccs1)NCc1ccccc1 (centres undefined)
  A = 2.1	B = -18.4	C = 2.8	D = -1.0	E = 30.5*	F = -10.3	G = 8.4	H = 20.9

34	COc1ccc(S(=O)(=O)Nc2ccc3c(c2)C(=O)N([C@H](C)CO)C[C@@H](C)[C@@H](CN(C)C(=O)NC2CCCCC2)OCCCC[C@H](C)O3)cc1
  A = ·	B = 2.1	C = ·	D = ·	E = ·	F = ·	G = ·	H = ·

35	C[C@@H]1CCCCO[C@H](CN(C)C(=O)Nc2cccc3ccccc23)[C@H](C)CN([C@H](C)CO)C(=O)c2cc(NS(=O)(=O)c3ccc(Cl)cc3)ccc2O1
  A = ·	B = -1.8	C = ·	D = ·	E = ·	F = ·	G = ·	H = ·

36	COC(=O)c1ccccc1NC(=O)CNC(=O)c1ccc(OC)c(OC)c1
  A = 0.8	B = ·	C = 7.8	D = 4.1	E = 31.0*	F = -4.3	G = 5.9	H = 2.0

37	O=C(C[C@@H]1C[C@@H]2c3cc(NC(=O)NC4CCCC4)ccc3O[C@@H]2[C@@H](CO)O1)NCc1ccc(Cl)cc1
  A = ·	B = -11.2	C = ·	D = ·	E = ·	F = ·	G = ·	H = ·

38	COc1ccc(-c2cc(C(=O)Nc3cc(C)on3)no2)cc1OC
  A = -1.9	B = ·	C = -1.8	D = -3.0	E = 30.5*	F = 1.1	G = 2.3	H = -1.4
